## Apparent affinities of Ab-95 variants for a coronavirus HR2 peptide

Values reported by Engelhart et al. 2022, doi:10.1038/s41597-022-01779-4 (FLAb copy).

Target peptide (SARS-CoV-2 spike, HR2 region): PDVDLGDISGINAS

Parent scFv Ab-95: VH joined to VL by three GGGGS repeats. Changes lie in the light chain CDRs alone.
VH: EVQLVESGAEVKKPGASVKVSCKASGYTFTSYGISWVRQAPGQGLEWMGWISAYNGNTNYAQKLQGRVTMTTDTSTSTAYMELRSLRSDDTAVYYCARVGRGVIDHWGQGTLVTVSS
VL: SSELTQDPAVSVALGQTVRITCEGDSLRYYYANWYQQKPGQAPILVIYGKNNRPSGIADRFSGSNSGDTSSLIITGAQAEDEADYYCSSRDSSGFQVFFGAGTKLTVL

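The parent was found by panning a naive human phage display library on the peptide. Variants in AAYL52 differ from the parent at up to three CDR positions; double and triple changes were sampled at random. The scFvs were displayed on barcoded MATa yeast, the peptide on MATalpha yeast. Pairs that bind mate more often; barcode pairs of the diploids are counted by sequencing. The ratio of observed to expected reads was calibrated, replicate by replicate, on BCL2-family standards whose Kd was known from biolayer interferometry. The assay was run in three technical replicates.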

Each variant is given by its three light chain CDRs, as the data file delimits them; those of the parent are EGDSLRYYYAN, GKNNRPS, SSRDSSGFQVF.
All variants listed here change R53 of the VL, counted from its first residue.
The read-out is the apparent dissociation constant on a log10 scale (nM): the lower, the stronger.
Averages over replicates are reported, and they cover detected replicates only.
A pair that was not seen in any replicate is written "nd"; this usually means weak binding, but a binder can also be missed.
Three control strains display no target. For library AAYL52, 28% of the pairings with them gave a signal, with a median of 3.91 and one signal in twenty below 2.90, so weak values seen in few replicates may be background.

The variant EGDSLFYYYAK | GKNNVPS | SSRDSSGFQVF gave 5.12 (2 of 3 replicates). With LGDSLRYYYAN | GKNNFPS | SSRDSSGFQVN the result was nd (0 of 3 replicates). With EGDSLRYYQAN | GKNNECS | SSRDSSGFQVF the result was 3.96 (3 of 3 replicates). For EGDSLRAYYAN | GCNNLPS | SSRDSSGFQVF, the assay gave 4.78 (2 of 3 replicates). For EGDSLRYYYAN | GKNFSPS | SSRDSSFFQVF, the assay gave 4.11 (2 of 3 replicates). The variant EGDSLRYNYAN | GKNNGPS | SSRDSSGFQVF showed 1.36 (3 of 3 replicates). With EGDSTRYYYAN | GKNAIPS | SSRDSSGFQVF the result was nd (0 of 3 replicates). The variant EGDSLRYYYAN | GKNNNPM | SSRDSSGFDVF gave 3.93 (3 of 3 replicates).

For EMDSLRYYYAN | GKNNCPS | SSRDSSGFQVF, the assay gave 4.76 (2 of 3 replicates). With EGDSLKYEYAN | GKNNYPS | SSRDSSGFQVF the result was 3.03 (3 of 3 replicates). For EGDSLRYYYAN | GKNNHPS | SSRDSGGFQVF, the assay gave 2.84 (3 of 3 replicates). The variant EGDSLRYYYAN | GKNNAPS | SSRYSSGFQVF showed 4.61 (2 of 3 replicates). The variant EGDSLRYYYAN | GKNNPPM | SSRDSFGFQVF showed 3.71 (1 of 3 replicates). The variant EGDSLRYYYAN | GKNNWPS | SIADSSGFQVF gave 5.41 (1 of 3 replicates). For EGDSTRYYYAN | GKNNNPS | SSRDESGFQVF, the assay gave 4.62 (1 of 3 replicates). The variant EGDSLRYYMAN | GKNAIPS | SSRDSSGFQVF showed 3.07 (3 of 3 replicates).

The variant EGDSLYYYYAN | GKNNLPS | SSRDSSGFQMF gave 3.41 (3 of 3 replicates). The variant EGDHLRYYYAN | GKNNWPS | SSRDSSEFQVF showed nd (0 of 3 replicates). For EGDGLRYYYAN | GKNNQKS | SSRDSSGFQVF, the assay gave 3.30 (1 of 3 replicates). The variant EGDSLRYYYAN | GKNNQPS | SSRCSSYFQVF showed nd (0 of 3 replicates). The variant EGDFLRYYYAN | GKNNCPS | SERDSSGFQVF showed 2.85 (1 of 3 replicates). For EGDSLRYYYAN | GKNFSVS | SSRDSSGFQVF, the assay gave nd (0 of 3 replicates). With EGDSLRYYYAW | GKNNCPS | SSRDSSGFQVF the result was nd (0 of 3 replicates). For EGDSLRYYYAN | GKNNNPS | TSRQSSGFQVF, the assay gave 4.69 (1 of 3 replicates).

For EGDSLRYTYAN | GKNNSPW | SSRDSSGFQVF, the assay gave 2.70 (3 of 3 replicates). For EGDSLRYYYAN | GKNNWPS | SSRDSDGFQVF, the assay gave 3.87 (1 of 3 replicates). With EGDSERYYYAN | GKNNIPS | SSRDSWGFQVF the result was nd (0 of 3 replicates). The variant EGDSLRYYYAN | GKNDWPP | SSRDSSGFQVF gave nd (0 of 3 replicates). With EGDSLRYYHAN | GKNNTTS | SSRDSSGFQVF the result was 2.75 (2 of 3 replicates). For EHDSLRYYYAN | GKNNDPS | SSRDSSGFQVF, the assay gave nd (0 of 3 replicates). The variant EGDSLRYYYAN | GKNNFPS | SYEDSSGFQVF showed nd (0 of 3 replicates). For EDDSLRYYYAN | GKNNFPS | SSRDSDGFQVF, the assay gave 4.68 (1 of 3 replicates).

For WGYSLRYYYAN | GKNNAPS | SSRDSSGFQVF, the assay gave 2.89 (2 of 3 replicates). The variant EGDSLRYNYAN | GKNNEPS | SSTDSSGFQVF gave 4.86 (2 of 3 replicates). The variant EGNSLRYYYAP | GKNNMPS | SSRDSSGFQVF gave 4.44 (2 of 3 replicates). For EGDRLRYYYAN | GKNNCPS | SSRDSSGNQVF, the assay gave 3.36 (1 of 3 replicates). The variant EGDSLRWYYAN | GKNNDPS | NSRDSSGFQVF gave 3.91 (3 of 3 replicates). The variant EGDSKRYYYAN | GKVNKPS | SSRDSSGFQVF gave nd (0 of 3 replicates). For EGDSLRYYYAN | GKNNWPS | SHRDNSGFQVF, the assay gave nd (0 of 3 replicates). With EGDSLRYYYAN | GKNNIPQ | SSRDSSGAQVF the result was 3.00 (3 of 3 replicates).

With EGDSLRYYYAN | GKNNSPS | SSRDSSDFGVF the result was 3.25 (3 of 3 replicates). The variant EGDSLRYYYAN | GKNNPWT | SSRDSSGFQVF gave 4.11 (2 of 3 replicates). With EGDSLREYYAN | GKNPSPS | SSRDSSGFQVF the result was 5.05 (1 of 3 replicates). The variant EGASLRYYYAN | GKNGYPS | SSRDSSGFQVF gave 3.14 (1 of 3 replicates). With EGDSLRYYYAN | GKNRTPS | SSRDSSGFYVF the result was 3.38 (2 of 3 replicates). For EGDSLRYYYAH | GKNNLPS | SSRDSSGMQVF, the assay gave 4.06 (3 of 3 replicates). For EGDSLRYYYAN | GRNNQPS | SSRDSSGVQVF, the assay gave 4.12 (2 of 3 replicates). With EGDSLRYYYAN | GKNNYPS | LSRDSSGFQVF the result was 4.71 (1 of 3 replicates).

With EGDSLRYYYFN | GKNNAQS | SSRDSSGFQVF the result was 4.15 (2 of 3 replicates). The variant EGDSLRYYYAN | GKNNAKS | SSRDSSGFQVF showed 3.79 (3 of 3 replicates). The variant EGDSLRYYYAN | GKNNAPS | SSRDSRGFGVF showed 3.92 (1 of 3 replicates). The variant EGDSLRYYYMN | GKNNMPS | SQRDSSGFQVF gave 3.24 (2 of 3 replicates).

5 of these entries, quoted again:

CDR-L1	CDR-L2	CDR-L3	mean, log10 nM	detected
EHDSLRYYYAN	GKNNDPS	SSRDSSGFQVF	nd	0/3
EGDSLRAYYAN	GCNNLPS	SSRDSSGFQVF	4.78	2/3
EGDSLRYYYAN	GKNFSPS	SSRDSSFFQVF	4.11	2/3
EGDSLRYYYAN	GRNNQPS	SSRDSSGVQVF	4.12	2/3
EGDSLRYNYAN	GKNNEPS	SSTDSSGFQVF	4.86	2/3

Parent in this assay: reference entry 2.31, copy in this library 2.25.